Results from patent publication US20080292586A1 (priority 2005, published 2008).

Tested on: MDBK cells

In the case of Interferon alpha 2a, the T50 was over 1000 IU.
